Usually Kd stands for the concentration at which binding is half-saturated.

From patent publication US20160114057A1, “MODULAR PROTEIN DRUG CONJUGATE THERAPEUTIC” (ZYMEWORKS INC., priority 2013, published 2016) come the findings set out here.

The target of data set [1] is T1, HER2 (Homo sapiens, UniProt P04626).
T1 construct: reaction with the purified antigen in 10 mM NaOAc at pH 4.5
As to the kind of experiment: SPR binding to target antigen HER2. Particulars: immobilized antigen, 25 C, read-out: KD (Ave). Here is the method:
The ability of the ADCs to bind to the target antigen HER2 was assessed using SPR (surface plasmon resonance) binding. Briefly, binding by SPR was measured using the Bio-Rad ProteOn XPR36 instrument. Runs were carried out using 1×PBS running buffer at a temperature of 25 C. The target surface is generated using a GLC sensorchip via amine coupling kit (EDC/sNHS) activation followed by reaction with the purified antigen in 10 mM NaOAc at pH 4.5 until approximately 1000 RU signal is observed indicative of antigen immobilization. Remaining active groups are quenched by injection of enthanolamine. A 3-fold dilution series of the ADC with a blank buffer control is simultaneously injected at 50 mL/min for 120 s with a 20-minute dissociation, resulting in a set of binding sensograms with a buffer reference for each. A pulse of 0.85% phosphoric acid regenerates the antigen surface on the SPR chip.
Background: SPR reads the build-up and loss of mass on a sensor chip optically.

Data set [2] in a line: Differential scanning calorimetry (thermal stability). The settings on record: DSC. It is filed as physicochemical. In general terms: DSC measures the heat that a sample takes up or gives off during a temperature scan.

Turning to v5110, the Kd in data set [1] was 0.6 nM. Take “v9992: Recombinant domain III of human serum albumin, purchased from Albumin Bioscience”: the “unfolding transition (in words)” value in data set [2] is “broad unfolding transition”.
